Test results published in patent publication EP4834897A1, “COMPOUNDS WITH TWO AZAHETEROCYCLES SUBSTITUTED ISOINDOLINONE SKELETON AND USES THEREOF” (dated 2026).

The chains behind the UniProt entries cited, without tags or fusion partners.
UniProt Q96SW2, whole entry: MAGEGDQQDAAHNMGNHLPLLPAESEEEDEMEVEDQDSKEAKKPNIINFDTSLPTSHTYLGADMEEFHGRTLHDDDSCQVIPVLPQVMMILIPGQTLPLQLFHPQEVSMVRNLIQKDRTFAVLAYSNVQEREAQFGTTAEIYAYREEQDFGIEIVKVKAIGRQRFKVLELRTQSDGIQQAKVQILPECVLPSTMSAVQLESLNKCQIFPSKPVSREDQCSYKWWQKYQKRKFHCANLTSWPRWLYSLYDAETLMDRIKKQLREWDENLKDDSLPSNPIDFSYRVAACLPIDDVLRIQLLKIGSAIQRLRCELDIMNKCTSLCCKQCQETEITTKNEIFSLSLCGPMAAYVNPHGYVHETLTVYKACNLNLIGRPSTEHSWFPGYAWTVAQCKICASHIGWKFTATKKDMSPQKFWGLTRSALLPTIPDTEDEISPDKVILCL
UniProt Q9UKS7, whole entry: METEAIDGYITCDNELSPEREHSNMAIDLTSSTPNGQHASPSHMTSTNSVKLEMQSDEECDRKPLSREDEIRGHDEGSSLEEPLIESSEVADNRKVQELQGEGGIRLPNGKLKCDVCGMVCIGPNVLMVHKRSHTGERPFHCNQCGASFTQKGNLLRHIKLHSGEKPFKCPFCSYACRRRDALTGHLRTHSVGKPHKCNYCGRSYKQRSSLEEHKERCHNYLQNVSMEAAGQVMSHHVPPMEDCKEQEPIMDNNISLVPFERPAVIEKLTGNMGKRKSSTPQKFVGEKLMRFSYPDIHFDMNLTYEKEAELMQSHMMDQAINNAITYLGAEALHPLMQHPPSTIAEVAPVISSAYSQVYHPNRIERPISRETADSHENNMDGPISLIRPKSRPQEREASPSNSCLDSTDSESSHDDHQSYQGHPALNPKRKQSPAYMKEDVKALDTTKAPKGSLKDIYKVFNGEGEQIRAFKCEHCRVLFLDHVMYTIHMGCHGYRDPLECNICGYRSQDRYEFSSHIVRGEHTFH
UniProt Q9UKT9, whole entry: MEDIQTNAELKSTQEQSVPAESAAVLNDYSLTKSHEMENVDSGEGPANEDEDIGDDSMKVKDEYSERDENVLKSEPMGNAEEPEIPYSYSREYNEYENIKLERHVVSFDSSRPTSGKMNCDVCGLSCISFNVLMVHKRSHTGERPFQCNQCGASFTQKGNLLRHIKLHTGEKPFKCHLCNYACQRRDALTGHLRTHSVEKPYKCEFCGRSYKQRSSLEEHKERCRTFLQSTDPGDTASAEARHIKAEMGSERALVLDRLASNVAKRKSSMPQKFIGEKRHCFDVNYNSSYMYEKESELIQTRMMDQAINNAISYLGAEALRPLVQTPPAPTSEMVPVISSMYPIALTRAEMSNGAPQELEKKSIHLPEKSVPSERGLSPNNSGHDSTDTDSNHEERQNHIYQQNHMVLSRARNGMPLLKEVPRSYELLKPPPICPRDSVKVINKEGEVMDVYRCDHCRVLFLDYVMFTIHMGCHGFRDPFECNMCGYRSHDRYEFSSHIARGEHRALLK
UniProt P30291, whole entry: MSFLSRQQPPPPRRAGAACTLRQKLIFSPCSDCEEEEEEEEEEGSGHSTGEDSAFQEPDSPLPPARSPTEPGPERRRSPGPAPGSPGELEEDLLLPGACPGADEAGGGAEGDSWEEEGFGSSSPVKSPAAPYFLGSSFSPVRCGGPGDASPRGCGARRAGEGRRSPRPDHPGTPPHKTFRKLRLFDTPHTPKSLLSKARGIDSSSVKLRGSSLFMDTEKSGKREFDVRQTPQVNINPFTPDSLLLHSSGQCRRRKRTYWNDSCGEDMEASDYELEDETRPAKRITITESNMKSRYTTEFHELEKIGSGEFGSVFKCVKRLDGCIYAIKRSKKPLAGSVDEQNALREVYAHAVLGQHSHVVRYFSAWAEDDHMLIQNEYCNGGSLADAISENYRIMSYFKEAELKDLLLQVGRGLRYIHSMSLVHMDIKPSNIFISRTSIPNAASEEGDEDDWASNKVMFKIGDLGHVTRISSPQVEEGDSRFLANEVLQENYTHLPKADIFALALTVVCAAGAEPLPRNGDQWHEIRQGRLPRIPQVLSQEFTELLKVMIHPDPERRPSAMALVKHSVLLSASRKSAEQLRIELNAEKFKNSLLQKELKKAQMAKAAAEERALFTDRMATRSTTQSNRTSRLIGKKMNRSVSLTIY
UniProt Q13422, whole entry: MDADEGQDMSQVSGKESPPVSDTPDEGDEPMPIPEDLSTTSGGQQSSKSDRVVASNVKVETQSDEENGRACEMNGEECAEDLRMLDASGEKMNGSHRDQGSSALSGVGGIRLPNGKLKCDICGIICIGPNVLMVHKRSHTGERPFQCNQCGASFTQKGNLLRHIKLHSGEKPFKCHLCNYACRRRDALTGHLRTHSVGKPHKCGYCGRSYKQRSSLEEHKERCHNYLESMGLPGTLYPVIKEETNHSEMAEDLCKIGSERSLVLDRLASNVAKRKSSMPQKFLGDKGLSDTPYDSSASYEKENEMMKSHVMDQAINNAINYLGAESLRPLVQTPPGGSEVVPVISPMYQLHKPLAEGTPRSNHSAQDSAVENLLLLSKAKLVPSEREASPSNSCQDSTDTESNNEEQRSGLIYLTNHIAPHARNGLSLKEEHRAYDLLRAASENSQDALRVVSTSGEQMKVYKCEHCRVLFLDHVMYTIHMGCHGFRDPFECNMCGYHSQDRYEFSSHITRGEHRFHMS
UniProt P15170, whole entry: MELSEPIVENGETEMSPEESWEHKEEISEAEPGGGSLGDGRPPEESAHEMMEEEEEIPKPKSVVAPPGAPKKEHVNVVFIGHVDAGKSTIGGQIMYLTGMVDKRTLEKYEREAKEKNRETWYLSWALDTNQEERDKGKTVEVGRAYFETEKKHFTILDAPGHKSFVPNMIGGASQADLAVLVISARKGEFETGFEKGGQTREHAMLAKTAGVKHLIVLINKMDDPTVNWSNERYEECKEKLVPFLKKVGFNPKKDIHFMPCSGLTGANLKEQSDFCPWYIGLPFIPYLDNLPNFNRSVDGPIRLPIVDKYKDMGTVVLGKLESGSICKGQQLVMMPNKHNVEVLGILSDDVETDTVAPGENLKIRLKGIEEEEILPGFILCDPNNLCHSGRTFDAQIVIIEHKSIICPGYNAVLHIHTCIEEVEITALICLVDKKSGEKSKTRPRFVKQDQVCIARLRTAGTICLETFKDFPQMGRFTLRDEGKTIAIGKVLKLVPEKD
UniProt P48729, whole entry: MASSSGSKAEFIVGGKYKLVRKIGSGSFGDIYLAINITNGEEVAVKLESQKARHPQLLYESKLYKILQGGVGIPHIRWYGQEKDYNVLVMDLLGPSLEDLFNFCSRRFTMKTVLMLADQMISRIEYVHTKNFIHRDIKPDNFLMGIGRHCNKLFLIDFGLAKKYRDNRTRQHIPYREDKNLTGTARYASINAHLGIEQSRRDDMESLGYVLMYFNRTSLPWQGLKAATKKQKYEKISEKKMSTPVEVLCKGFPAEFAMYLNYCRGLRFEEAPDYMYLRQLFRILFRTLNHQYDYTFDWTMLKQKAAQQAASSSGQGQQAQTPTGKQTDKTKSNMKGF
UniProt Q16531, whole entry partner: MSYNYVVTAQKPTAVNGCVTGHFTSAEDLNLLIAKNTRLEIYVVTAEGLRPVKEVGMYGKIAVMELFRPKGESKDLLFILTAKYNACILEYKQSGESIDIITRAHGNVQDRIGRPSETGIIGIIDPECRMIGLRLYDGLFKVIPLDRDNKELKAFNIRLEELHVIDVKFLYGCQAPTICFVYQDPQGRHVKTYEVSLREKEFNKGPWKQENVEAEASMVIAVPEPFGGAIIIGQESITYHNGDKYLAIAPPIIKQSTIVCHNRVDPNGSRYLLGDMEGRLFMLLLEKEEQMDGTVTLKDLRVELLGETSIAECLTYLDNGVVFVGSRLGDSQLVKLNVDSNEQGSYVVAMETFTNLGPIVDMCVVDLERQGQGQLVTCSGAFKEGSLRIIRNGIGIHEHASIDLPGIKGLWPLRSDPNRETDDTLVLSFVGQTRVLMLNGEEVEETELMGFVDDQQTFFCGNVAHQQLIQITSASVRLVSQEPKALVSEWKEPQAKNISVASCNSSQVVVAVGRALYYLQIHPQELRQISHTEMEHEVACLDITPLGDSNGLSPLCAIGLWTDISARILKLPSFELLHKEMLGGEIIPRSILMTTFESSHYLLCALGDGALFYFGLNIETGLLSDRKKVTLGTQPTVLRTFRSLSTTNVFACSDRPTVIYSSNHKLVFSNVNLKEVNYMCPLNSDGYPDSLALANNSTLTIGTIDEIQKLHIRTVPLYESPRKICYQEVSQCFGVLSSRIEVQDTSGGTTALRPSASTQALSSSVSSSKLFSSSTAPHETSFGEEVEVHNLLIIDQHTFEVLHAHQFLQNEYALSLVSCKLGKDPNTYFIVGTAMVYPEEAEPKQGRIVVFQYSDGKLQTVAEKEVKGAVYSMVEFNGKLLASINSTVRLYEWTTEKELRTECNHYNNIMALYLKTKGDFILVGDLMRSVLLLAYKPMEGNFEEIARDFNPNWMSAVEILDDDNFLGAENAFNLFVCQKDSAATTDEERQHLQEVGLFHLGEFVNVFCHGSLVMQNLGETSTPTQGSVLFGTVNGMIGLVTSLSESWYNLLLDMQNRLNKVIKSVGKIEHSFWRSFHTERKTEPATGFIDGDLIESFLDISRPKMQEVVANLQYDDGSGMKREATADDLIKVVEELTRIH

What follows are molecules tested against IKZF2 (Homo sapiens, UniProt Q96SW2+Q9UKS7) (assay: Western blot assay of substrate protein degradation in hPBMCs). Conditions: 24 hours treatment, compounds at 50 nM and 500 nM (concentration behind the class not stated).

Row | Compound | substrate protein remaining % (IKZF2)
1 | O=C1CCC(N2C(=O)c3cccc(CN4CCC(N5CCN(C(c6ccccc6)c6ccccc6)CC5)CC4)c3C2=O)C(=O)N1 (stereo not shown) | B (80%< substrate protein remaining %≤ 100%)

These molecules were tested against IKZF3 (Homo sapiens, UniProt Q96SW2+Q9UKT9) in the same assay as above. Conditions: 24 hours treatment, compounds at 50 nM and 500 nM (concentration behind the class not stated).

Row | Compound | substrate protein remaining % (IKZF3)
2 | O=C1CCC(N2C(=O)c3cccc(CN4CCC(N5CCN(C(c6ccccc6)c6ccccc6)CC5)CC4)c3C2=O)C(=O)N1 (stereo not shown) | A (0% ≤ substrate protein remaining % ≤ 80%)

These molecules were tested against WEE1 (Homo sapiens, UniProt P30291+Q96SW2) in the same assay as above. Conditions: 24 hours treatment, compounds at 50 nM and 500 nM (concentration behind the class not stated).

Row | Compound | substrate protein remaining % (WEE1)
3 | O=C1CCC(N2C(=O)c3cccc(CN4CCC(N5CCN(C(c6ccccc6)c6ccccc6)CC5)CC4)c3C2=O)C(=O)N1 (stereo not shown) | B (80%< substrate protein remaining %≤ 100%)

These molecules were tested against IKZF1 (Homo sapiens, UniProt Q13422+Q96SW2) in the same assay as above. Conditions: 24 hours treatment, compounds at 50 nM and 500 nM (concentration behind the class not stated).

Row | Compound | substrate protein remaining % (IKZF 1)
4 | O=C1CCC(N2C(=O)c3cccc(CN4CCC(N5CCN(C(c6ccccc6)c6ccccc6)CC5)CC4)c3C2=O)C(=O)N1 (stereo not shown) | B (80%< substrate protein remaining %≤ 100%)

What follows are molecules tested against GSPT1 (Homo sapiens, UniProt P15170+Q96SW2) in the same assay as above. Conditions: 24 hours treatment, compounds at 50 nM and 500 nM (concentration behind the class not stated).

Row | Compound | substrate protein remaining % (GSPT1)
5 | O=C1CCC(N2C(=O)c3cccc(CN4CCC(N5CCN(C(c6ccccc6)c6ccccc6)CC5)CC4)c3C2=O)C(=O)N1 (stereo not shown) | B (80%< substrate protein remaining %≤ 100%)

Each molecule was assayed against CK1α (Homo sapiens, UniProt P48729+Q96SW2) in the same assay as above. Conditions: 24 hours treatment, compounds at 50 nM and 500 nM (concentration behind the class not stated).

Row | Compound | substrate protein remaining % (CK1a)
6 | O=C1CCC(N2C(=O)c3cccc(CN4CCC(N5CCN(C(c6ccccc6)c6ccccc6)CC5)CC4)c3C2=O)C(=O)N1 (stereo not shown) | B (80%< substrate protein remaining %≤ 100%)

What follows are molecules tested against CRBN (Homo sapiens, UniProt Q96SW2) (assay: CRBN binding affinity by HTRF (CEREBLON BINDING kit)). Conditions: CRBN binding, HTRF, compound at 0.5 µM.

Row | Compound | Inhibition Rate at 0.5 µM (%)
7 | O=C1CCC(N2Cc3cc(CCN4CCC(N5CCN(c6noc7cc(F)ccc67)CC5)CC4)ccc3C2=O)C(=O)N1 (stereo not shown) | a6 (60% < a6 ≤ 70%)

Same assay, conditions: CRBN binding, HTRF, compound at 2 µM

Row | Compound | Inhibition Rate at 2 µM (%)
8 | O=C1CCC(N2Cc3cc(CCN4CCC(N5CCN(c6noc7cc(F)ccc67)CC5)CC4)ccc3C2=O)C(=O)N1 (stereo not shown) | a8 (80% < a8 ≤100%)

What follows are molecules tested on IL-1α (assay: Inflammatory cytokine release from PBMCs induced by PHA (flow cytometry CBA)). Conditions: 0.1 µM, PHA 1 µg/mL, 24 h.

Row | Compound | Inhibition Rate (%) IL-1α
9 | O=C1CCC(N2C(=O)c3cccc(CN4CCC(N5CCN(C(c6ccccc6)c6ccccc6)CC5)CC4)c3C2=O)C(=O)N1 (stereo not shown) | IV4 (-50% ≤ IV4 < 0%)
10 | O=C1CCC(N2Cc3cc(CCN4CCC(N5CCN(c6noc7cc(F)ccc67)CC5)CC4)ccc3C2=O)C(=O)N1 (stereo not shown) | IV13 (80% < IV13 ≤ 90%)

Same assay, conditions: 1 µM, PHA 1 µg/mL, 24 h

Row | Compound | Inhibition Rate (%) IL-1α
11 | O=C1CCC(N2C(=O)c3cccc(CN4CCC(N5CCN(C(c6ccccc6)c6ccccc6)CC5)CC4)c3C2=O)C(=O)N1 (stereo not shown) | IV1 1
12 | O=C1CCC(N2Cc3cc(CCN4CCC(N5CCN(c6noc7cc(F)ccc67)CC5)CC4)ccc3C2=O)C(=O)N1 (stereo not shown) | IV1 0

Each molecule was assayed on TNF-α in the same assay as above. Conditions: 0.1 µM, PHA 1 µg/mL, 24 h.

Row | Compound | Inhibition Rate (%) TNF-α
13 | O=C1CCC(N2Cc3cccc(CN4CCC(N5CCN(C(c6ccccc6)c6ccccc6)CC5)CC4)c3C2=O)C(=O)N1 (stereo not shown) | IV9 (40% < IV9 ≤ 50%)
14 | O=C1CCC(N2C(=O)c3cccc(CN4CCC(N5CCN(C(c6ccccc6)c6ccccc6)CC5)CC4)c3C2=O)C(=O)N1 (stereo not shown) | IV8 (30% < IV8 ≤ 40%)
15 | O=C1CCC(N2Cc3cc(CCN4CCC(N5CCN(c6noc7cc(F)ccc67)CC5)CC4)ccc3C2=O)C(=O)N1 (stereo not shown) | IV12 (70% < IV12 ≤ 80%)

Same assay, conditions: 1 µM, PHA 1 µg/mL, 24 h

Row | Compound | Inhibition Rate (%) TNF-α
16 | O=C1CCC(N2Cc3cccc(CN4CCC(N5CCN(C(c6ccccc6)c6ccccc6)CC5)CC4)c3C2=O)C(=O)N1 (stereo not shown) | IV1 0
17 | O=C1CCC(N2C(=O)c3cccc(CN4CCC(N5CCN(C(c6ccccc6)c6ccccc6)CC5)CC4)c3C2=O)C(=O)N1 (stereo not shown) | IV1 1
18 | O=C1CCC(N2Cc3cc(CCN4CCC(N5CCN(c6noc7cc(F)ccc67)CC5)CC4)ccc3C2=O)C(=O)N1 (stereo not shown) | IV1 0

These molecules were tested on IL-2 in the same assay as above. Conditions: 0.1 µM; PBMCs, PHA 1 µg/mL, 24 h.

Row | Compound | Inhibition Rate (%) IL-2
19 | O=C1CCC(N2Cc3cccc(CN4CCC(N5CCN(C(c6ccccc6)c6ccccc6)CC5)CC4)c3C2=O)C(=O)N1 (stereo not shown) | IV8 (30% < IV8 ≤ 40%)
20 | O=C1CCC(N2C(=O)c3cccc(CN4CCC(N5CCN(C(c6ccccc6)c6ccccc6)CC5)CC4)c3C2=O)C(=O)N1 (stereo not shown) | IV11 (60% < IV11 ≤ 70%)

Same assay, conditions: 1 µM; PBMCs, PHA 1 µg/mL, 24 h

Row | Compound | Inhibition Rate (%) IL-2
21 | O=C1CCC(N2Cc3cccc(CN4CCC(N5CCN(C(c6ccccc6)c6ccccc6)CC5)CC4)c3C2=O)C(=O)N1 (stereo not shown) | IV1 0
22 | O=C1CCC(N2C(=O)c3cccc(CN4CCC(N5CCN(C(c6ccccc6)c6ccccc6)CC5)CC4)c3C2=O)C(=O)N1 (stereo not shown) | IV1 2

What follows are molecules tested on IL-10 in the same assay as above. Conditions: 0.1 µM; PBMCs, PHA 1 µg/mL, 24 h.

Row | Compound | Inhibition Rate (%) IL-10
23 | O=C1CCC(N2Cc3cccc(CN4CCC(N5CCN(C(c6ccccc6)c6ccccc6)CC5)CC4)c3C2=O)C(=O)N1 (stereo not shown) | IV8 (30% < IV8 ≤ 40%)
24 | O=C1CCC(N2C(=O)c3cccc(CN4CCC(N5CCN(C(c6ccccc6)c6ccccc6)CC5)CC4)c3C2=O)C(=O)N1 (stereo not shown) | IV6 (10% < IV6 ≤ 20%)

Same assay, conditions: 1 µM; PBMCs, PHA 1 µg/mL, 24 h

Row | Compound | Inhibition Rate (%) IL-10
25 | O=C1CCC(N2Cc3cccc(CN4CCC(N5CCN(C(c6ccccc6)c6ccccc6)CC5)CC4)c3C2=O)C(=O)N1 (stereo not shown) | IV9 (40% < IV9 ≤ 50%)
26 | O=C1CCC(N2C(=O)c3cccc(CN4CCC(N5CCN(C(c6ccccc6)c6ccccc6)CC5)CC4)c3C2=O)C(=O)N1 (stereo not shown) | IV1 0

Each molecule was assayed on GM-CSF (assay: Inflammatory cytokine release from PBMCs induced by PMA + Ionomycin (flow cytometry CBA)). Conditions: 0.1 µM, 24 h.

Row | Compound | Inhibition Rate (%) GM-CSF
27 | O=C1CCC(N2Cc3cccc(CN4CCC(N5CCN(C(c6ccccc6)c6ccccc6)CC5)CC4)c3C2=O)C(=O)N1 (stereo not shown) | IV9 (40% < IV9 ≤ 50%)

Same assay, conditions: 1 µM, 24 h

Row | Compound | Inhibition Rate (%) GM-CSF
28 | O=C1CCC(N2Cc3cccc(CN4CCC(N5CCN(C(c6ccccc6)c6ccccc6)CC5)CC4)c3C2=O)C(=O)N1 (stereo not shown) | IV9 (40% < IV9 ≤ 50%)
